Reference: patent US11945807B2, “Splicing modulator antibody-drug conjugates and methods of use” (EISAI R&D MANAGEMENT CO., LTD., priority 2018, dated 2024)

B1: AB206-ADL12-D2 (conjugate)
heavy: EVQLLESGGGLVQPGGSLRLSCAASGFTFSHYMMAWVRQAPGKGLEWVSRIGPSGGPTHYADSVKGRFTISRDNSKNTLYLQMNSLRAEDTAVYYCAGYDSGYDYVAVAGPAEYFQHWGQGTLVTVSSASTKGPSVFPLAPSSKSTSGGTAALGCLVKDYFPEPVTVSWNSGALTSGVHTFPAVLQSSGLYSLSSVVTVPSSSLGTQTYICNVNHKPSNTKVDKKV[sequence of human IgG1 Fc not given]
light: DIQMTQSPSSLSASVGDRVTITCRASQSISTWLAWYQQKPGKAPKLLIYKASNLHTGVPSRFSGSGSGTEFSLTISGLQPDDFATYYCQQYNSYSRTFGQGTKVEIKRTVAAPSVFIFPPSDEQLKSGTASVVCLLNNFYPREAKVQWKVDNALQSGNSQESVTEQDSKDSTYSLSSTLTLSKADYEKHKVYACEVTHQGLSSPVTKSFNRGEC
B2: AB206-ADL5-D25 (conjugate)
heavy: B1 heavy
light: B1 light
B3: AB206-ADL5-D2 (conjugate)
heavy: B1 heavy
light: B1 light
B4: AB206-ADL1-D14 (conjugate)
heavy: B1 heavy
light: B1 light
B5: AB206-ADL1-D1 (conjugate)
heavy: B1 heavy
light: B1 light
B6: AB206-ADL5-D15 (conjugate)
heavy: B1 heavy
light: B1 light
B7: AB206-ADL1-D8 (conjugate)
heavy: B1 heavy
light: B1 light
B8: AB206-ADL10-D1 (conjugate)
heavy: B1 heavy
light: B1 light
B9: AB206-ADL5-D19 (conjugate)
heavy: B1 heavy
light: B1 light
B10: AB206-ADL1-D4 (conjugate)
heavy: B1 heavy
light: B1 light
B11: AB206-ADL12-D1 (conjugate)
heavy: B1 heavy
light: B1 light

Assay: LC/MS analysis - DAR
Assay type: physicochemical
Settings: anti-EPHA2 ADCs

Row | Molecule | DAR
1 | B1 | 6.3
2 | B2 | 5
3 | B3 | 6.3
4 | B4 | 3.6
5 | B5 | 5.6
6 | B6 | 4.2
7 | B7 | 6.5
8 | B8 | 2.7
9 | B9 | 4.6
10 | B10 | 6
11 | B11 | 6.4
